Reference: US12042564B2, “Therapeutic solid dosage forms” (CYBIN UK LTD, priority 2020, dated 2024)

System: human liver mitochondrial fraction
Assay: Intrinsic clearance and half-life in human liver mitochondrial fraction
Format: in vitro ADME
Conditions: 0.5 mg/mL human liver mitochondrial fraction; 1 μM test compounds, 5 μM Serotonin and Benzylamine controls; replicate 1

O=C(O)/C=C/C(=O)O.[2H]C([2H])([2H])N(C([2H])([2H])[2H])C([2H])([2H])Cc1c[nH]c2ccccc12 [SPL028viii, (96.7%) α,α,-dideutero-N,N-bis-trideutero-dimethyltryptamine fumarate salt]
Half-life (min) R1: 121.4 min
